A short description of this series: Acid-base titration (pKa). The series is classed as physicochemical. The settings on record: methyl cellosolve/H2O 4/1, excess 0.01M HCl, titrated with 0.01N NaOH. How it is done:
Acid-base titrations were carried out under the following conditions: the sample was dissolved in a mixture methyl cellosolve/H2 O 4/1, then an excess of 0.01M HCl in the same solvent mixture was added and the resulting solution was titrated with 0.01N NaOH.

With “reductive cleavage product of vancomycin [Example 6]”, the pKa2 turned out to be 8.3 and the pKa3 is 9.4.

Values taken from US5602229A, “Pentapeptide antibiotics” (Gruppo Lepetit S.p.A., priority 1989, dated 1997).
